From US20040072754A1, “Amyloid precursor protein and APP-deprived peptides inhibit tumor growth and metastasis” (priority 2000, published 2004)

Key:
[1] = system: D122 tumor cells (Lewis lung carcinoma); experiment: Lewis lung carcinoma (D122) i.v. lung metastasis model with i.p. injected Aβ peptides; format: in vivo, C57/BL mice; details: for reduction of the number of metastases in the lungs: 20 μg/mouse/injection (Aβ96-110: 10 μg), 7 times during two weeks before and 7 times after D122 i.v. injection, examined after 21 days
[2] = system: hippocampal cell cultures; details: cited from earlier work

Substance	reduction of the number of metastases in the lungs [1] [%]	effect on Lewis lung carcinoma lung metastasis (in words) ([1]; C57/BL mice, i.p. peptide)	toxicity to neuronal cells [2]
Asp-Ala-Glu-Phe-Arg-His-Asp-Ser-Gly-Tyr-Glu-Val-His-His-Gln-Lys (DAEFRHDSGYEVHHQK; listed as Homo sapiens) [Aβ1-16]	81	most effective in inhibiting lung metastasis	non-toxic
Tyr-Glu-Val-His-His-Gln-Lys-Leu-Val-Phe-Phe (YEVHHQKLVFF; listed as Homo sapiens) [Aβ10-20]	17	–	–
